According to PMC9696605:

Test system: Nedd4L mRNA in T cells from MS patients
Assay: Nedd4L mRNA expression, real-time PCR
Format: cell-based, human
Settings: T cells from 12 MS patients, normalized to GAPDH, Figure 2c; pU24-6A p: 0.0025, pc: 0.018; pU24-6B p: 0.004, pc: 0.028; Nedd4L RNAi p: 0.0015, pc: 0.011

`CSCC[C@H](NC(=O)[C@@H](NC(=O)[C@H](CC(=O)O)NC(=O)[C@H](CC(N)=O)NC(=O)[C@H](Cc1ccc(O)cc1)NC(=O)[C@H](CO)NC(=O)[C@@H]1CCCN1C(=O)[C@@H]1CCCN1C(=O)[C@@H]1CCCN1C(=O)[C@@H](NC(=O)[C@H](CCC(=O)O)NC(=O)[C@H](Cc1c[nH]cn1)NC(=O)[C@@H](NC(=O)[C@@H](N)CCSC)[C@@H](C)O)[C@@H](C)O)C(C)C)C(=O)N[C@@H](CC(C)C)C(=O)O` was tested, and the “Nedd4L mRNA expression” value was “did not modify Nedd4L mRNA expression”.
